Test results reported in patent publication US20200024278A1, “COMPOSITION COMPRISING ANTIBIOTIC COMPOUND AND AN HETEROCYCLIC COMPOUND AND THEIR USE IN PREVENTING OR TREATING BACTERIAL INFECTIONS” (MUTABILIS, priority 2016, published 2020).

What was measured:
Assay in all cases: MIC, broth microdilution (CLSI), substance alone or ATB combined with compound at 4 or 8 μg/mL
SPN 49619 = type: cell-based, S. pneumoniae
PAE 105250 = type: cell-based, P. aeruginosa
SAU 29213 = type: cell-based, S. aureus
ECO 190317 = type: cell-based, E. coli
PAE UFR48 = type: cell-based, P. aeruginosa
PAE UFR90 = type: cell-based, P. aeruginosa
KPN BAA-1898 = type: cell-based, K. pneumoniae
ECO UFR39 = type: cell-based, E. coli
KPN UFR42 = type: cell-based, K. pneumoniae
KPN 6299 = type: cell-based, K. pneumoniae
ECL P99 = type: cell-based, E. cloacae

CC1(C)S[C@@H]2[C@H](NC(=O)[C@H](N)c3ccc(O)cc3)C(=O)N2[C@H]1C(=O)O [AMX, Amoxicillin, reference compound]
MIC (SPN 49619; Streptococcus pneumoniae, antibiotic alone): 0.125 µg/mL
MIC ATB combined with Example 1 @8 μg/ml (SPN 49619; with Example 1 @8 μg/ml): 0.125 µg/mL
MIC ATB combined with Example 1 @8 μg/ml (SPN 49619; with Example 1 at 8 μg/ml): 0.125 µg/mL
MIC ATB combined with Example 1 @8 μg/ml (PAE 105250; with Example 1 @8 μg/ml): 0.125 µg/mL
MIC ATB combined with Example 1 @8 μg/ml (PAE 105250; with Example 1 at 8 μg/ml): 0.125 µg/mL
MIC ATB combined with Example 7 @8 μgml (SAU 29213; with Example 7 at 8 μg/ml): 0.125 µg/mL
MIC ATB combined with Example 13 @8 μg/ml (SAU 29213; with Example 13 at 8 μg/ml): 0.125 µg/mL

CO/N=C(\C(=O)N[C@@H]1C(=O)N2C(C(=O)O)=C(COC(C)=O)CS[C@H]12)c1csc(N)n1 [CTX]
MIC ATB combined with Example 7 @8 μgml (ECO 190317; with Example 7 at 8 μg/ml): <0.031 µg/mL
MIC ATB combined with Example 9 @4 μg/ml (ECO 190317; with Example 9 @4 μg/ml): <0.031 µg/mL
MIC ATB combined with Example 9 @4 μg/ml (ECO 190317; with Example 9 at 4 μg/ml): <0.031 µg/mL
MIC ATB combined with Example 11 @8 μg/ml (ECO 190317; with Example 11 at 8 μg/ml): <0.031 µg/mL
MIC ATB combined with Example 12 @8 μg/ml (ECO 190317; with Example 12 at 8 μg/ml): <0.031 µg/mL
MIC ATB combined with Example 14 @8 μg/ml (ECO 190317; with Example 14 at 8 μg/ml): <0.031 µg/mL
MIC ATB combined with Example 15 @4 μgml (ECO 190317; with Example 15 at 4 μg/ml): <0.031 µg/mL
MIC ATB combined with Example 16 @4 μg/ml (ECO 190317; with Example 16 at 4 μg/ml): <0.031 µg/mL
MIC ATB alone (PAE UFR48; antibiotic alone): >32 µg/mL
MIC ATB combined with Example 9 @4 μg/ml (PAE UFR48; with Example 9 @4 μg/ml): >32 µg/mL
MIC ATB combined with Example 9 @4 μg/ml (PAE UFR48; with Example 9 at 4 μg/ml): >32 µg/mL
MIC ATB combined with Example 13 @8 μg/ml (PAE UFR48; with Example 13 at 8 μg/ml): >32 µg/mL
MIC ATB alone (PAE UFR90; antibiotic alone): >32 µg/mL
MIC ATB combined with Example 9 @4 μg/ml (PAE UFR90; with Example 9 @4 μg/ml): >32 µg/mL
MIC ATB combined with Example 9 @4 μg/ml (PAE UFR90; with Example 9 at 4 μg/ml): >32 µg/mL
MIC ATB combined with Example 12 @8 μg/ml (PAE UFR90; with Example 12 at 8 μg/ml): >32 µg/mL
MIC ATB combined with Example 13 @8 μg/ml (PAE UFR90; with Example 13 at 8 μg/ml): >32 µg/mL
MIC ATB combined with Example 7 @8 μgml (KPN BAA-1898; with Example 7 at 8 μg/ml): <=0.031 μg/mL
MIC ATB combined with Example 9 @4 μg/ml (KPN BAA-1898; with Example 9 @4 μg/ml): <0.031 µg/mL
MIC ATB combined with Example 9 @4 μg/ml (KPN BAA-1898; with Example 9 at 4 μg/ml): <0.031 µg/mL
MIC ATB combined with Example 11 @8 μg/ml (KPN BAA-1898; with Example 11 at 8 μg/ml): <0.031 µg/mL
MIC ATB combined with Example 12 @8 μg/ml (KPN BAA-1898; with Example 12 at 8 μg/ml): <0.031 µg/mL
MIC ATB combined with Example 13 @8 μg/ml (KPN BAA-1898; with Example 13 at 8 μg/ml): 0.5 µg/mL
MIC ATB combined with Example 14 @8 μg/ml (KPN BAA-1898; with Example 14 at 8 μg/ml): <0.031 µg/mL
MIC ATB combined with Example 15 @4 μgml (KPN BAA-1898; with Example 15 at 4 μg/ml): <=0.031 μg/mL
MIC ATB combined with Example 16 @4 μg/ml (KPN BAA-1898; with Example 16 at 4 μg/ml): <0.031 µg/mL
MIC ATB alone (ECO UFR39; antibiotic alone): >32 µg/mL
MIC ATB combined with Example 1 @8 μg/ml (ECO UFR39; with Example 1 @8 μg/ml): >32 µg/mL
MIC ATB combined with Example 1 @8 μg/ml (ECO UFR39; with Example 1 at 8 μg/ml): >32 µg/mL
MIC ATB combined with Example 7 @8 μgml (ECO UFR39; with Example 7 at 8 μg/ml): <0.031 µg/mL
MIC ATB combined with Example 9 @4 μg/ml (ECO UFR39; with Example 9 @4 μg/ml): <0.031 µg/mL
MIC ATB combined with Example 9 @4 μg/ml (ECO UFR39; with Example 9 at 4 μg/ml): <0.031 µg/mL
MIC ATB combined with Example 11 @8 μg/ml (ECO UFR39; with Example 11 at 8 μg/ml): <0.031 µg/mL
MIC ATB combined with Example 12 @8 μg/ml (ECO UFR39; with Example 12 at 8 μg/ml): <0.031 µg/mL
MIC ATB combined with Example 14 @8 μg/ml (ECO UFR39; with Example 14 at 8 μg/ml): <0.031 µg/mL
MIC ATB combined with Example 15 @4 μgml (ECO UFR39; with Example 15 at 4 μg/ml): <0.031 µg/mL
MIC ATB combined with Example 16 @4 μg/ml (ECO UFR39; with Example 16 at 4 μg/ml): <0.031 µg/mL
MIC ATB alone (KPN UFR42; antibiotic alone): >32 µg/mL
MIC ATB combined with Example 1 @8 μg/ml (KPN UFR42; with Example 1 @8 μg/ml): >32 µg/mL
MIC ATB combined with Example 1 @8 μg/ml (KPN UFR42; with Example 1 at 8 μg/ml): >32 µg/mL
MIC ATB combined with Example 7 @8 μgml (KPN UFR42; with Example 7 at 8 μg/ml): <0.031 µg/mL
MIC ATB combined with Example 9 @4 μg/ml (KPN UFR42; with Example 9 @4 μg/ml): >32 µg/mL
MIC ATB combined with Example 9 @4 μg/ml (KPN UFR42; with Example 9 at 4 μg/ml): >32 µg/mL
MIC ATB combined with Example 11 @8 μg/ml (KPN UFR42; with Example 11 at 8 μg/ml): <0.031 µg/mL
MIC ATB combined with Example 12 @8 μg/ml (KPN UFR42; with Example 12 at 8 μg/ml): <0.031 µg/mL
MIC ATB combined with Example 13 @8 μg/ml (KPN UFR42; with Example 13 at 8 μg/ml): >32 µg/mL
MIC ATB combined with Example 14 @8 μg/ml (KPN UFR42; with Example 14 at 8 μg/ml): <0.031 µg/mL
MIC ATB combined with Example 15 @4 μgml (KPN UFR42; with Example 15 at 4 μg/ml): <0.031 µg/mL
MIC ATB combined with Example 16 @4 μg/ml (KPN UFR42; with Example 16 at 4 μg/ml): <0.031 µg/mL
MIC ATB combined with Example 9 @4 μg/ml (SAU 29213; with Example 9 @4 μg/ml): <0.031 µg/mL
MIC ATB combined with Example 9 @4 μg/ml (SAU 29213; with Example 9 at 4 μg/ml): <0.031 µg/mL
MIC ATB combined with Example 12 @8 μg/ml (SAU 29213; with Example 12 at 8 μg/ml): <0.031 µg/mL
MIC ATB combined with Example 14 @8 μg/ml (SAU 29213; with Example 14 at 8 μg/ml): <0.031 µg/mL
MIC ATB combined with Example 16 @4 μg/ml (SAU 29213; with Example 16 at 4 μg/ml): <0.031 µg/mL
MIC ATB combined with Example 1 @8 μg/ml (KPN 6299; with Example 1 @8 μg/ml): 0.25 µg/mL
MIC ATB combined with Example 1 @8 μg/ml (KPN 6299; with Example 1 at 8 μg/ml): 0.25 µg/mL
MIC ATB combined with Example 7 @8 μgml (KPN 6299; with Example 7 at 8 μg/ml): <=0.031 μg/mL
MIC ATB combined with Example 9 @4 μg/ml (KPN 6299; with Example 9 @4 μg/ml): <=0.031 μg/mL
MIC ATB combined with Example 9 @4 μg/ml (KPN 6299; with Example 9 at 4 μg/ml): <=0.031 μg/mL
MIC ATB combined with Example 11 @8 μg/ml (KPN 6299; with Example 11 at 8 μg/ml): <0.031 µg/mL
MIC ATB combined with Example 12 @8 μg/ml (KPN 6299; with Example 12 at 8 μg/ml): <0.031 µg/mL
MIC ATB combined with Example 14 @8 μg/ml (KPN 6299; with Example 14 at 8 μg/ml): <0.031 µg/mL
MIC ATB combined with Example 15 @4 μgml (KPN 6299; with Example 15 at 4 μg/ml): <=0.031 μg/mL
MIC ATB combined with Example 16 @4 μg/ml (KPN 6299; with Example 16 at 4 μg/ml): <=0.031 μg/mL
MIC ATB combined with Example 9 @4 μg/ml (ECL P99; with Example 9 @4 μg/ml): <0.031 µg/mL
MIC ATB combined with Example 9 @4 μg/ml (ECL P99; with Example 9 at 4 μg/ml): <0.031 µg/mL
MIC ATB combined with Example 11 @8 μg/ml (ECL P99; with Example 11 at 8 μg/ml): <0.031 µg/mL
MIC ATB combined with Example 12 @8 μg/ml (ECL P99; with Example 12 at 8 μg/ml): <0.031 µg/mL
MIC ATB combined with Example 14 @8 μg/ml (ECL P99; with Example 14 at 8 μg/ml): <0.031 µg/mL
MIC ATB combined with Example 16 @4 μg/ml (ECL P99; with Example 16 at 4 μg/ml): <0.031 µg/mL
